Experimental data: patent publication US10335367B2, “Use of selected anticholinergic zwitterions” (Bodor Laboratories, Inc., priority 2015, dated 2019)
“And” between values parts separate entries of the source, which are not always exact repeats. Equal entries are not always repeated.

System: human eyes
Test: Mydriatic study of (2R)SGA & Tropicamide in human eyes (topical, pupil diameter)
Format: in vivo
Conditions: for recovery time (pupil within less than 1 mm of the control): 100 μL
[1] = 1%, 0.1 ml, Subject 1 Right eye, 120 hr
[2] = 1%, 0.1 ml, Subject 1 Right eye, 144 hr
[3] = 1%, 0.1 ml, Subject 1 Right eye, 168 hr
[4] = 1%, 0.1 ml, Subject 2 Left Eye, 0 hr
[5] = 1%, 0.1 ml, Subject 2 Left Eye, 0.25 hr
[6] = 1%, 0.1 ml, Subject 2 Left Eye, 0.5 hr
[7] = 1%, 0.1 ml, Subject 2 Left Eye, 0.75 hr
[8] = 1%, 0.1 ml, Subject 2 Left Eye, 1 hr
[9] = 1%, 0.1 ml, Subject 2 Left Eye, 1.5 hr
[10] = 1%, 0.1 ml, Subject 2 Left Eye, 2 hr
[11] = 1%, 0.1 ml, Subject 2 Left Eye, 3 hr
[12] = 1%, 0.1 ml, Subject 2 Left Eye, 4 hr
[13] = 1%, 0.1 ml, Subject 2 Left Eye, 5 hr
[14] = 1%, 0.1 ml, Subject 2 Left Eye, 6 hr
[15] = 1%, 0.1 ml, Subject 2 Left Eye, 7 hr
[16] = 1%, 0.1 ml, Subject 2 Left Eye, 8 hr
[17] = 1%, 0.1 ml, Subject 2 Left Eye, 12 hr
[18] = 1%, 0.1 ml, Subject 2 Left Eye, 24 hr
[19] = 1%, 0.1 ml, Subject 2 Left Eye, 36 hr
[20] = 1%, 0.1 ml, Subject 2 Left Eye, 48 hr
[21] = 1%, 0.1 ml, Subject 2 Left Eye, 72 hr
[22] = 1%, 0.1 ml, Subject 2 Left Eye, 96 hr
[23] = 1%, 0.1 ml, Subject 2 Left Eye, 120 hr
[24] = 1%, 0.1 ml, Subject 2 Left Eye, 144 hr
[25] = 1%, 0.1 ml, Subject 2 Left Eye, 168 hr
[26] = 1%, 0.1 ml, Subject 2 Right eye, 0 hr
[27] = 1%, 0.1 ml, Subject 2 Right eye, 0.25 hr
[28] = 1%, 0.1 ml, Subject 2 Right eye, 0.5 hr
[29] = 1%, 0.1 ml, Subject 2 Right eye, 0.75 hr
[30] = 1%, 0.1 ml, Subject 2 Right eye, 1 hr
[31] = 1%, 0.1 ml, Subject 2 Right eye, 1.5 hr
[32] = 1%, 0.1 ml, Subject 2 Right eye, 2 hr
[33] = 1%, 0.1 ml, Subject 2 Right eye, 3 hr
[34] = 1%, 0.1 ml, Subject 2 Right eye, 4 hr
[35] = 1%, 0.1 ml, Subject 2 Right eye, 5 hr
[36] = 1%, 0.1 ml, Subject 2 Right eye, 6 hr
[37] = 1%, 0.1 ml, Subject 2 Right eye, 7 hr
[38] = 1%, 0.1 ml, Subject 2 Right eye, 8 hr
[39] = 1%, 0.1 ml, Subject 2 Right eye, 12 hr
[40] = 1%, 0.1 ml, Subject 2 Right eye, 24 hr
[41] = 1%, 0.1 ml, Subject 2 Right eye, 36 hr
[42] = 1%, 0.1 ml, Subject 2 Right eye, 48 hr
[43] = 1%, 0.1 ml, Subject 2 Right eye, 72 hr
[44] = 1%, 0.1 ml, Subject 2 Right eye, 96 hr
[45] = 1%, 0.1 ml, Subject 2 Right eye, 120 hr
[46] = 1%, 0.1 ml, Subject 2 Right eye, 144 hr
[47] = 1%, 0.1 ml, Subject 2 Right eye, 168 hr

`C[N+]1(CC(=O)[O-])CCC(OC(=O)[C@](O)(c2ccccc2)C2CCCC2)C1` (stereo partly drawn) was tested, and the “Pupil Size -Control” value (1%, 0.1 ml, Subject 1 Right eye, 96 hr) was 2, the “% dilation (% Change in pupil size)” value [1] was 50% and the “Pupil Size” value [1] was 4.5 mm. For the same molecule, the “Pupil Size -Control” value [1] was 1.5, the “% dilation (% Change in pupil size)” value [2] was 33% and 33.3% and the “Pupil Size” value [2] was 4 mm. The “Pupil Size -Control” value [2] was 1, the “% dilation (% Change in pupil size)” value [3] was 17% and 16.7% and the “Pupil Size” value [3] was 3.5 mm. For the same molecule, the “Pupil Size -Control” value [3] was 0.5, the “AUC0-168 of % change in pupil size” value (1%, 0.1 ml, Subject 2 Left Eye) was 4743.8 and the “% dilation (% Change in pupil size)” value [4] was 0%. For the same molecule, the “Pupil Size” value [4] was 3 mm, the “Pupil Size -Control” value [4] was 0 and the “% dilation (% Change in pupil size)” value [5] was 33% and 33.3%. The “Pupil Size” value [5] was 4 mm, the “Pupil Size -Control” value [5] was 1 and the “% dilation (% Change in pupil size)” value [6] was 117% and 116.7%. For the same molecule, the “Pupil Size” value [6] was 6.5 mm, the “Pupil Size -Control” value [6] was 3.5 and the “% dilation (% Change in pupil size)” value [7] was 117% and 116.7%. For the same molecule, the “Pupil Size” value [7] was 6.5 mm, the “Pupil Size -Control” value [7] was 3.5 and the “% dilation (% Change in pupil size)” value [8] was 117% and 116.7%. The “Pupil Size” value [8] was 6.5 mm, the “Pupil Size -Control” value [8] was 3.5 and the “% dilation (% Change in pupil size)” value [9] was 117% and 116.7%. For the same molecule, the “Pupil Size” value [9] was 6.5 mm, the “Pupil Size -Control” value [9] was 3.5 and the “% dilation (% Change in pupil size)” value [10] was 117% and 116.7%. The “Pupil Size” value [10] was 6.5 mm, the “Pupil Size -Control” value [10] was 3.5 and the “% dilation (% Change in pupil size)” value [11] was 133% and 133.3%. For the same molecule, the “Pupil Size” value [11] was 7 mm, the “Pupil Size -Control” value [11] was 4 and the “% dilation (% Change in pupil size)” value [12] was 133% and 133.3%. For the same molecule, the “Pupil Size” value [12] was 7 mm, the “Pupil Size -Control” value [12] was 4 and the “% dilation (% Change in pupil size)” value [13] was 125%. For the same molecule, the “Pupil Size” value [13] was 6.75 mm, the “Pupil Size -Control” value [13] was 3.75 and the “% dilation (% Change in pupil size)” value [14] was 125%. For the same molecule, the “Pupil Size” value [14] was 6.75 mm, the “Pupil Size -Control” value [14] was 3.75 and the “% dilation (% Change in pupil size)” value [15] was 125%. The “Pupil Size” value [15] was 6.75 mm, the “Pupil Size -Control” value [15] was 3.75 and the “% dilation (% Change in pupil size)” value [16] was 125%. For the same molecule, the “Pupil Size” value [16] was 6.75 mm, the “Pupil Size -Control” value [16] was 3.75 and the “% dilation (% Change in pupil size)” value [17] was 117% and 116.7%. The “Pupil Size” value [17] was 6.5 mm, the “Pupil Size -Control” value [17] was 3.5 and the “% dilation (% Change in pupil size)” value [18] was 83% and 83.3%. The “Pupil Size” value [18] was 5.5 mm, the “Pupil Size -Control” value [18] was 2.5 and the “% dilation (% Change in pupil size)” value [19] was 50%. The “Pupil Size” value [19] was 4.5 mm, the “Pupil Size -Control” value [19] was 1.5 and the “% dilation (% Change in pupil size)” value [20] was 33% and 33.3%. For the same molecule, the “Pupil Size” value [20] was 4 mm, the “Pupil Size -Control” value [20] was 1 and the “% dilation (% Change in pupil size)” value [21] was 17% and 16.7%. The “Pupil Size” value [21] was 3.5 mm, the “Pupil Size -Control” value [21] was 0.5 and the “% dilation (% Change in pupil size)” value [22] was 0%. The “Pupil Size” value [22] was 3 mm, the “Pupil Size -Control” value [22] was 0 and the “% dilation (% Change in pupil size)” value [23] was 0%. For the same molecule, the “Pupil Size” value [23] was 3 mm, the “Pupil Size -Control” value [23] was 0 and the “% dilation (% Change in pupil size)” value [24] was 0%. For the same molecule, the “Pupil Size” value [24] was 3 mm, the “Pupil Size -Control” value [24] was 0 and the “% dilation (% Change in pupil size)” value [25] was 0%. For the same molecule, the “Pupil Size” value [25] was 3 mm, the “Pupil Size -Control” value [25] was 0 and the “AUC0-168 of % change in pupil size” value (1%, 0.1 ml, Subject 2 Right eye) was 3137.5. For the same molecule, the “% dilation (% Change in pupil size)” value [26] was 0%, the “Pupil Size” value [26] was 3 mm and the “Pupil Size -Control” value [26] was 0. For the same molecule, the “% dilation (% Change in pupil size)” value [27] was 33% and 33.3%, the “Pupil Size” value [27] was 4 mm and the “Pupil Size -Control” value [27] was 1. The “% dilation (% Change in pupil size)” value [28] was 100%, the “Pupil Size” value [28] was 6 mm and the “Pupil Size -Control” value [28] was 3. The “% dilation (% Change in pupil size)” value [29] was 100%, the “Pupil Size” value [29] was 6 mm and the “Pupil Size -Control” value [29] was 3. The “% dilation (% Change in pupil size)” value [30] was 100%, the “Pupil Size” value [30] was 6 mm and the “Pupil Size -Control” value [30] was 3. For the same molecule, the “% dilation (% Change in pupil size)” value [31] was 100%, the “Pupil Size” value [31] was 6 mm and the “Pupil Size -Control” value [31] was 3. For the same molecule, the “% dilation (% Change in pupil size)” value [32] was 100%, the “Pupil Size” value [32] was 6 mm and the “Pupil Size -Control” value [32] was 3. For the same molecule, the “% dilation (% Change in pupil size)” value [33] was 100%, the “Pupil Size” value [33] was 6 mm and the “Pupil Size -Control” value [33] was 3. The “% dilation (% Change in pupil size)” value [34] was 100%, the “Pupil Size” value [34] was 6 mm and the “Pupil Size -Control” value [34] was 3. For the same molecule, the “% dilation (% Change in pupil size)” value [35] was 100%, the “Pupil Size” value [35] was 6 mm and the “Pupil Size -Control” value [35] was 3. The “% dilation (% Change in pupil size)” value [36] was 100%, the “Pupil Size” value [36] was 6 mm and the “Pupil Size -Control” value [36] was 3. The “% dilation (% Change in pupil size)” value [37] was 100%, the “Pupil Size” value [37] was 6 mm and the “Pupil Size -Control” value [37] was 3. The “% dilation (% Change in pupil size)” value [38] was 100%, the “Pupil Size” value [38] was 6 mm and the “Pupil Size -Control” value [38] was 3. The “% dilation (% Change in pupil size)” value [39] was 83% and 83.3%, the “Pupil Size” value [39] was 5.5 mm and the “Pupil Size -Control” value [39] was 2.5. The “% dilation (% Change in pupil size)” value [40] was 50%, the “Pupil Size” value [40] was 4.5 mm and the “Pupil Size -Control” value [40] was 1.5. The “% dilation (% Change in pupil size)” value [41] was 17% and 16.7%, the “Pupil Size” value [41] was 3.5 mm and the “Pupil Size -Control” value [41] was 0.5. The “% dilation (% Change in pupil size)” value [42] was 17% and 16.7%, the “Pupil Size” value [42] was 3.5 mm and the “Pupil Size -Control” value [42] was 0.5. The “% dilation (% Change in pupil size)” value [43] was 17% and 16.7%, the “Pupil Size” value [43] was 3.5 mm and the “Pupil Size -Control” value [43] was 0.5. For the same molecule, the “% dilation (% Change in pupil size)” value [44] was 0%, the “Pupil Size” value [44] was 3 mm and the “Pupil Size -Control” value [44] was 0. The “% dilation (% Change in pupil size)” value [45] was 0%, the “Pupil Size” value [45] was 3 mm and the “Pupil Size -Control” value [45] was 0. For the same molecule, the “% dilation (% Change in pupil size)” value [46] was 0%, the “Pupil Size” value [46] was 3 mm and the “Pupil Size -Control” value [46] was 0. The “% dilation (% Change in pupil size)” value [47] was 0%, the “Pupil Size” value [47] was 3 mm and the “Pupil Size -Control” value [47] was 0. For the same molecule, the AUC0-168 (1%, 0.1 ml, mean of 2 subjects) was 7436.5 (%)xhr, the duration of action (1%, 100 μL topical) was “much longer than in the case of tropicamide” and the local mydriatic activity (1%, 100 μL topical) was “good local mydriatic activity that was similar to tropicamide”. The “recovery time (pupil within less than 1 mm of the control)” value (1%, subject 1) was “approximately 120 hours”, the “recovery time (pupil within less than 1 mm of the control)” value (1%, subject 2) was 36 h and the “uncomfortable sensations in human eyes” value (topical) was “did not cause any uncomfortable sensations”.
